In patent US9738604B2, “Ethynylbenzene derivatives” (Duke University, priority 2010, dated 2017) one finds MIC data, which are given here for 1 compound.

The test system of one assay is E. coli W3110. Put plainly: microbe, parasite or virus in culture. Type of assay: cell-based. Particulars: Escherichia coli, W3110, 22 h, read-out: MIC E. coli W3110.
The subject of the next assay is P. aeruginosa (PAO1). The assay is described as follows: MIC, P. aeruginosa. Type of assay: cell-based. The settings on record: Pseudomonas aeruginosa, PAO1, 22 h, read-out: MIC P. aeruginosa (PAO1).

Converted amounts (≈) assume the structure as drawn. Bounds are passed on as bounds.

Regarding `CCCc1cc(C2=N[C@@H](C(=O)NO)CO2)cc(OC)c1OC`, the MIC is 11 to 50 mg/L (≈ 35.7 to 162 µM) in the assay with E. coli W3110 and over 100 mg/L in the assay on P. aeruginosa (PAO1).
